{"sequences": {"note": "By UniProt entry, the sequences of proteins in these tests, tags left out. Where a name states a change or a piece, a line headed by the entry shows the natural chain unless it says otherwise.", "UniProt P31391": "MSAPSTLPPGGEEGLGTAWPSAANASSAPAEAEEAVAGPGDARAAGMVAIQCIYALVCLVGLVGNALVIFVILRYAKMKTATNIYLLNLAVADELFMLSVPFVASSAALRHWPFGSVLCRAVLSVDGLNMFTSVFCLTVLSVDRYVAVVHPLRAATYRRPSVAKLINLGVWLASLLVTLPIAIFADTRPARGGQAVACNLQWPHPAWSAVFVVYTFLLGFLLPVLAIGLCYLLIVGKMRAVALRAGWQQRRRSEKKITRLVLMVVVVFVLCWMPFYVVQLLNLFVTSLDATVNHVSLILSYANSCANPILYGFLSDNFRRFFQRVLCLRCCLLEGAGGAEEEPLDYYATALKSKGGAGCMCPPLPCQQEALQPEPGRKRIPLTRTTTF"}, "source": "ChEMBL document CHEMBL2203114", "about": "“The Discovery of MK-4256, a Potent SSTR3 Antagonist as a Potential Treatment of Type 2 Diabetes” (ACS Med Chem Lett, 2012)", "molecular_target": "Somatostatin receptor type 4 (Homo sapiens, UniProt P31391)", "assay_type": "cell-based, CHO", "note": "pIC50: −log10 of the molar value.", "data": [{"smiles": "Cc1nc([C@]2(c3cnn(C)c3)N[C@@H](c3nc(-c4ccc(F)cc4)c[nH]3)Cc3c2[nH]c2ccccc32)no1", "values": [{"measurement": "pIC50", "result": 6.42}]}]}
